Molecular target: Bcl isoforms
Test: Binding affinity for the Bcl isoforms
Conditions: result in words

Row | Compound | binding affinities (Ki) for the Bcl isoforms
1 | Cc1c(S(C)(=O)=O)c(-c2cc(F)cc(N3CCN(c4ccc(NS(=O)(=O)c5ccc(N[C@H](CCN6CCC(C(=O)OCCCP(=O)(O)O)CC6)CSc6ccccc6)c(S(=O)(=O)C(F)(F)F)c5)cc4)CC3)c2)c(-c2ccc(Cl)cc2)n1C(C)C | nanomole to picomole range
2 | CCn1c(C)c(C(=O)NS(C)(=O)=O)c(-c2cccc(N3CCN(c4ccc(NS(=O)(=O)c5ccc(N[C@H](CCN(C)C)CSc6ccccc6)c([N+](=O)[O-])c5)cc4)CC3)c2)c1-c1ccc(Cl)cc1 | nanomole to picomole range
